Reference: patent EP4831181A1, “SALT FORM OF TAAR1 LIGAND AGONIST, CRYSTAL FORM, PREPARATION METHOD, AND USE” (dated 2026)

Columns and labels:
[1] = Solid-state stability study (XRPD and HPLC); conditions: for Purity: HPLC, initial purity 99.95%
Experimental: A stability study of the Crystal Form A of the maleate salt of the compound of Formula I was conducted under high temperature (60 °C), high humidity (25 °C/92.5% RH), light exposure (25 °C/4500 Lux), and accelerated (40 °C/75% RH) conditions. Samples were taken for XRPD characterization and HPLC analysis at 7 and 15 days, respectively. […] Table 15. The results of a stability study of the Crystal Form A of the maleate salt of the compound of Formula I

[2] = Pharmacokinetic study in rats (intravenous and intragastric); conditions: SD rats; for AUClasl: plasma
Experimental: Rats: SD rats weighing 200-250 g Reagents: acetonitrile, MERCK; methanol, MERCK; formic acid, Sigma; tolbutamide, Sigma. Instruments: water purification equipment, Millipore; electronic balance, METTLER TOLEDO; high-speed benchtop centrifuge, Thermo; water-bath thermostatic shaker, Shanghai Yiheng Technical Co., Ltd.; vortex shaker, Thermo; liquid chromatography-mass spectrometry, AB SCIEX. Method: SD rats were dosed intravenously (IV) and intragastrically (IG), with 3 SD rats in each group. The compound of Formula I was administered, with DMSO and Tween 80 as vehicles. Administration doses: 2 mg/kg for intravenous administration and 5 mg/kg for intragastric administration. Whole blood samples were collected at 0, 5 min (intravenous), 15 min, 30 min, 1 h, 2 h, 4 h, 6 h, 8 h, 12 h, and 24 h, respectively, placed into heparinized EP tubes, and centrifuged at 13,500 rpm for 10 min to separate plasma. After pretreatment, the plasma samples were analyzed by LC-MS/MS to determine the concentration of the test compound in the plasma samples. Pharmacokinetic parameters of the compound of Formula I after intravenous and intragastric administration to SD rats

[3] = Dynamic vapor sorption (DVS)
Experimental: Dynamic vapor sorption analysis was performed on a DVS Intrinsic Plus instrument (SMS, UK). The test employed a gradient mode. The humidity was changed from 0% to 95% and back to 0%. The humidity change for each gradient was 10% in the range of 0% to 90%. The gradient endpoint was judged using dm/dt and was defined as a dm/dt of less than 0.002% lasting for 10 min, or each gradient lasting for a maximum of 180 min. After the test was completed, the sample was analyzed by XRPD to determine whether the solid form had changed.
About 1 g of the compound of Formula I was weighed out and added to a reaction flask, and 10 mL of isopropanol was added. After complete dissolution, 1 equivalent of maleic acid was added. The mixture was left to react at room temperature, and crystallization was monitored in real time. After a solid precipitated, the mixture was left to react for 30 min with the temperature maintained at 25 °C, then heated to 50 °C and stirred for 2 h with the temperature maintained, and then cooled to 25 °C and stirred overnight. The reaction solution was filtered, and the filter cake was washed and dried to give the Crystal Form A of the maleate salt of the compound of Formula I (1.44 g, yield: 90.1%, chemical purity: 99.86%). […] According to the above characterization results, it can be seen that the Crystal Form A of the maleate salt was an anhydrous crystal form. When the amount of maleic acid was 0.5-1.5 equivalents, the Crystal Form A of the maleate salt could be obtained, with a molar ratio of maleic acid to the compound of Formula I of about 1:1. Table 1. XRPD pattern analysis data for the Crystal Form A of the maleate salt of the compound of Formula I

[4] = Accelerated 40 °C/75% RH, 7 days
[5] = Accelerated 40 °C/75% RH, 15 days
[6] = High humidity 25 °C/92.5% RH, 7 days
[7] = High humidity 25 °C/92.5% RH, 15 days
[8] = High temperature 60 °C, 15 days
[9] = Light exposure 25 °C/4500 Lux, 7 days
[10] = Light exposure 25 °C/4500 Lux, 15 days

In the case of `c1cc2c(s1)[C@@H]1CNCCN1CC2`, the XRPD result [1, 4] is reported as “Crystal form A”, the Purity [1, 4] is reported as 99.94% and the XRPD result [1, 5] is reported as “Crystal form A”. The Purity [1, 5] was 99.91%, the XRPD result [1, 6] was “Crystal form A” and the Purity [1, 6] was 99.93%. For the same compound, the XRPD result [1, 7] was “Crystal form A”, the Purity [1, 7] was 99.90% and the XRPD result ([1]; High temperature 60 °C, 7 days) was “Crystal form A”. The Purity ([1]; High temperature 60 °C, 7 days) was 99.93%, the XRPD result [1, 8] was “Crystal form A” and the Purity [1, 8] was 99.89%. The XRPD result [1, 9] was “Crystal form A, a slight yellowing of the sample”, the Purity [1, 9] was 99.85% and the XRPD result [1, 10] was “Crystal form A, a slight yellowing of the sample”. For the same compound, the Purity [1, 10] was 99.79%, the AUClasl ([2]; IG 5mg/kg) was 9.945 ± 1.213 µM·h and the Cl_obs ([2]; IV 2mg/kg) was 28.8 ± 3.25 mL/min/kg. The Vss_obs ([2]; IV 2mg/kg) was 2.91 ± 0.68 L/kg, the AUClasl ([2]; IV 2mg/kg) was 5.971 ± 0.642 µM·h and the hygroscopicity ([3]; DVS, 25 °C) was “nearly no hygroscopicity”. For the same compound, the desorption weight loss ([3]; DVS, 25 °C, 0% RH) was “about 0.10%”, the adsorption weight increase ([3]; DVS, 25 °C, 80% RH) was “about 0.03%” and the desorption weight increase ([3]; DVS, 25 °C, 80% RH) was 0.03%. For the same compound, the adsorption weight increase ([3]; DVS, 25 °C, 95% RH) was “about 0.18%” and the “crystal form (XRPD) before and after DVS testing” value ([3]; XRPD before and after DVS) was “did not change”.
